IC50 data for two compounds are collected here from US11691969B2, “Pyridazinones as PARP7 inhibtors” (Ribon Therapeutics, Inc., priority 2019, dated 2023).

Protein sequences, listed by entry. Tags and fused reporters are not part of them.
UniProt Q7Z3E1, whole entry: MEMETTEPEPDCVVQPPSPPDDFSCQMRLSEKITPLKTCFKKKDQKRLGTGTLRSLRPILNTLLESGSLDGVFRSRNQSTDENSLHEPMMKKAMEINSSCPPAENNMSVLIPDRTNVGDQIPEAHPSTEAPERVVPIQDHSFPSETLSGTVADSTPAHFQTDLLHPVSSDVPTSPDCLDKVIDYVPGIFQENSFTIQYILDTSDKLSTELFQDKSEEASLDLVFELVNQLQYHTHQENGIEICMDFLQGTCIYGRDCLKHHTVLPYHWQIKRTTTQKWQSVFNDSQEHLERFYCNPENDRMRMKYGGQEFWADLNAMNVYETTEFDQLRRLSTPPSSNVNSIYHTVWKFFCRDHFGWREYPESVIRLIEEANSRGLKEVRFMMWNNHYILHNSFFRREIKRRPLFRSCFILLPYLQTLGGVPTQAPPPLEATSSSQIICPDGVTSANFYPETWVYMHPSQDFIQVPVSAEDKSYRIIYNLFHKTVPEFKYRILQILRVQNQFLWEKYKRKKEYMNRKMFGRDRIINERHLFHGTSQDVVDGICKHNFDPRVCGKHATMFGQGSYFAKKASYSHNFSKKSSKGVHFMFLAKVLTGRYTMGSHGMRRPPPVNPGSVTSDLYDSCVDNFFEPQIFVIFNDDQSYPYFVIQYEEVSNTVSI

This experiment has as its target PARP7 (Homo sapiens (Human), UniProt Q7Z3E1). Nature of the experiment: TR-FRET assay: displacement of biotinylated Probe A from the TIPARP active site (Enzymatic Assay for Inhibition of PARP7). The note with it: TIPARP 6 nM, Probe A 2 nM, 25° C. The procedure: Example A. Enzymatic Assay for Inhibition of PARP7
Displacement of Probe A, a biotinylated probe binding to the TIPARP active site, was measured using a time-resolved fluorescence energy transfer (TR-FRET) assay. 20 nL of a dose response curve of each test compound was spotted in black 384-well polystyrene proxiplates (Perkin Elmer) using a Mosquito (TTP Labtech). Reactions were performed in a 8 μl volume by adding 6 μL of TIPARP and Probe A in assay buffer (20 mM HEPES pH=8, 100 mM NaCl, 0.1% bovine serum albumin, 2 mM DTT and 0.002% Tween20), incubating with test compound at 25° C. for 30 min, then adding 2 μL of ULight-anti 6×His and LANCE Eu-W1024 labeled streptavidin (Perkin Elmer). The final concentrations of TIPARP and Probe A were 6 nM and 2 nM, respectively. The final concentration of ULight-anti 6×His and LANCE Eu-W1024 labeled streptavidin were 4 nM and 0.25 nM, respectively. Reactions were incubated at 25° C. for an additional 30 min, then read on an Envision platereader equipped with a LANCE/DELFIA top mirror (Perkin Elmer) using excitation of 320 nm and emission of 615 nm and […] with a […]. The ratio of the 665/615 nm emission were calculated for each well to determine the amount of complex of TIPARP and Probe Ain each well. […]

Consider `C[C@@H](CO[C@@H]1CCN(C2CCN(c3cnc(Cl)cn3)CC2)C1=O)Nc1cn[nH]c(=O)c1C(F)(F)F`, for which the half-inhibitory concentration (IC50) is < 0.1 µM.
Turning to `C[C@@H](CO[C@@H]1CCN(C2CCN(c3cnc(C#N)cn3)CC2)C1=O)Nc1cn[nH]c(=O)c1C(F)(F)F`, the half-maximal inhibitory concentration (IC50) is < 0.1 µM.
